Reference: ChEMBL document CHEMBL3425494, “Design, synthesis, and antitumor evaluation of novel histone deacetylase inhibitors equipped with a phenylsulfonylfuroxan module as a nitric oxide donor” (J Med Chem, 2015)

Sequences of proteins named here, by UniProt entry; tags and fusion partners are left off. A change or cut given only in a name is not applied to a line headed by its entry.
UniProt Q13547: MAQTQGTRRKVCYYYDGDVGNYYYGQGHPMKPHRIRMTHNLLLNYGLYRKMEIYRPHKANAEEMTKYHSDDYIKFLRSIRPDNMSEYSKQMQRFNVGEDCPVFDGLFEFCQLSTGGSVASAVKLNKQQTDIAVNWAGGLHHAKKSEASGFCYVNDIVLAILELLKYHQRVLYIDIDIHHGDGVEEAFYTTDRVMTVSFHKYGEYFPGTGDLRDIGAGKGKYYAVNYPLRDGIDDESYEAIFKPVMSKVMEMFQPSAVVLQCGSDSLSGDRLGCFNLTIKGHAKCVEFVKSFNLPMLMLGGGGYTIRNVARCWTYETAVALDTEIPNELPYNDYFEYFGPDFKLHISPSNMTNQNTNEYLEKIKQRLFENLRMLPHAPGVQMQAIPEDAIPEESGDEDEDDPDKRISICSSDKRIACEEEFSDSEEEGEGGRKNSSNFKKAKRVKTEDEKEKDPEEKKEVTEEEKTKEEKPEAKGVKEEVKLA
UniProt Q92769: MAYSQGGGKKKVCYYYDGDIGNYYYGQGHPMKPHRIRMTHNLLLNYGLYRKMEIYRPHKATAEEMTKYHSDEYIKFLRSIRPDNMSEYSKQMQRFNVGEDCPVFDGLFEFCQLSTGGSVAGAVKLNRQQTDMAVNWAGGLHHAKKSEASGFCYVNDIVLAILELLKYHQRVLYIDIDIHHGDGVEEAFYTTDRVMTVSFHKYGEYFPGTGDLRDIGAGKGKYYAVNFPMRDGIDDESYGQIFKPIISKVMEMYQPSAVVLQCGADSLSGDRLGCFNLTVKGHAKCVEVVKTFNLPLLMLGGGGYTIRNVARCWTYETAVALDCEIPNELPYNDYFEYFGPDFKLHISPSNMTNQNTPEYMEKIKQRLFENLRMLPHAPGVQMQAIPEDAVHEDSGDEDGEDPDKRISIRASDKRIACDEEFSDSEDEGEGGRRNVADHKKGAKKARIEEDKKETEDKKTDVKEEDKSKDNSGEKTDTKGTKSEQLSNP

Molecular target: Histone deacetylase (HDAC1 and HDAC2) (Homo sapiens, UniProt Q13547+Q92769)
Assay type: cell-based
Conditions: hela

- IC50: 38 nM
SMILES: O=C(CCCCCOc1no[n+]([O-])c1S(=O)(=O)c1ccccc1)NO
